For the assay, the target named is Programmed cell death 1 ligand 1 (Homo sapiens) (UniProt Q9NZQ7). The assay is described as follows: Binding affinity to human PD-L1 assessed as induction of protein dimerization by 1H NMR method.

Protein sequences, listed by entry. Tags and fused reporters are not part of them.
UniProt Q9NZQ7, whole entry: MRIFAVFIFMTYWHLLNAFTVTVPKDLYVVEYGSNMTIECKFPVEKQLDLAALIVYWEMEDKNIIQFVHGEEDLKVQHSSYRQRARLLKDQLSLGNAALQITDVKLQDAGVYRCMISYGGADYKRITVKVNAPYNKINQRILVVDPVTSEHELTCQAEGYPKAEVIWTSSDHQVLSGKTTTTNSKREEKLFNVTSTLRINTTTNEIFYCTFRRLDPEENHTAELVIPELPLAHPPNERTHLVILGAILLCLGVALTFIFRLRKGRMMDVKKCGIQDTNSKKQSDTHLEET

The values below come from ChEMBL document CHEMBL4834474, “Terphenyl-Based Small-Molecule Inhibitors of Programmed Cell Death-1/Programmed Death-Ligand 1 Protein-Protein Interaction” (J Med Chem, 2021).

Calls of active or inactive are those of the source. The calls are words filed in the database; no cut-off is given here.

For `Cc1c(-c2ccc(CO)cc2)cccc1-c1ccc2c(c1)OCCO2`, the outcome was Active.
